Molecular target: human A1 adenosine receptor (Homo sapiens, UniProt P30542)
Experiment: fus1-LacZ β-galactosidase assay in yeast expressing human A1 adenosine receptor
Format: cell-based
Design: yeast alpha-factor (Mfα1) prepro leader (N, cleaved yes); expressed in transfected cells; host or cells: Saccharomyces cerevisiae (strain CY12660 or related strains carrying plasmid p5095)
Details: NECA concentration of 10^−8 M

Chains of the proteins cited; added tags and fusions are not shown.
UniProt P30542, whole entry: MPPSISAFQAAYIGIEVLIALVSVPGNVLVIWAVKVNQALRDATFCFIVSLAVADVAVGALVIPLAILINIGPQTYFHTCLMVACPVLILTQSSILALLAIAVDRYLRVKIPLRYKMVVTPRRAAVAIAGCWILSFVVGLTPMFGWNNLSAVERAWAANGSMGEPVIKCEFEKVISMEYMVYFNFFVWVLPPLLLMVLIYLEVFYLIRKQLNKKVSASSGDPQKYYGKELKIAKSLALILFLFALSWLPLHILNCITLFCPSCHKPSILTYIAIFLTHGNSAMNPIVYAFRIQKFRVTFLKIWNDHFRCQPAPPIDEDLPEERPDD

`CCNC(=O)[C@H]1O[C@@H](n2cnc3c(N)ncnc32)[C@H](O)[C@@H]1O` [NECA, 5′-N-ethylcarboxamidoadenosine] was tested, and the “stimulation of β-galactosidase activity” value was “approximately 2 fold”.

— US7160890B2, “Compounds specific to adenosine A3 receptor and uses thereof” (OSI Pharmaceuticals, Inc., priority 1999, dated 2007)
